According to patent US20250313563A1, “GLYCOGEN SYNTHASE KINASE 3 INHIBITORS AND USES THEREOF” (The Broad Institute, Inc., priority 2022, published 2025):
Where two headings read alike, the source gives them in different places.

By UniProt entry, the sequences of proteins in these tests, tags left out.
UniProt P49841, whole entry: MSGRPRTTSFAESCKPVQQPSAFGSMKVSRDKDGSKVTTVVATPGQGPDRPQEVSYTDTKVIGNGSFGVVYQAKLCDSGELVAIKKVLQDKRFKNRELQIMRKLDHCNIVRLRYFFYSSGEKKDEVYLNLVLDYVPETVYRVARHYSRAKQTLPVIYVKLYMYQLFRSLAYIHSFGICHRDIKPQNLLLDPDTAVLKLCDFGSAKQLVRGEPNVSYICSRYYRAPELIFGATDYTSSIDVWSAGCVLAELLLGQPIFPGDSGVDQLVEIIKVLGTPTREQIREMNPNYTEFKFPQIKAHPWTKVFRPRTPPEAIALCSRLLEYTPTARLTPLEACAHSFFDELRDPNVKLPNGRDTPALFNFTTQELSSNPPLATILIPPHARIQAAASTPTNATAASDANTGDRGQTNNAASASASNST
UniProt P49840, whole entry: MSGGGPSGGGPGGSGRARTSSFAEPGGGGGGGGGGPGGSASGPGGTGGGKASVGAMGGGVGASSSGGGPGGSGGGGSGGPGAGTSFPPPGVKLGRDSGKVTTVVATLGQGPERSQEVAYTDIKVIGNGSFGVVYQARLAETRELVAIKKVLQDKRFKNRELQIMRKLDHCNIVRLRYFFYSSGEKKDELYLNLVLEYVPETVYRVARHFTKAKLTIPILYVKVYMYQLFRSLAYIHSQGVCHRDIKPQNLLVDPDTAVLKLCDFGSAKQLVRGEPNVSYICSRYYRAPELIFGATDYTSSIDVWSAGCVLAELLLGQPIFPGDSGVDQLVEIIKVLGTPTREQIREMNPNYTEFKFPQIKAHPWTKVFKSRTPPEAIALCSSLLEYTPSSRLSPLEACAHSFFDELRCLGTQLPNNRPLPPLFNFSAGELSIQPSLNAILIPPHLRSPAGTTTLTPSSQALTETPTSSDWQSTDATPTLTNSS

How the values were obtained:
[1] = target: GSK3b (GST-full length GSK3b) (Homo sapiens (Human), UniProt P49841); experiment: GSK3b TR-FRET kinase assay; format: biochemical
[2] = target: GSK3α (GST-full length GSK3α) (Homo sapiens (Human), UniProt P49840); experiment: GSK3α TR-FRET kinase assay; format: biochemical
[3] = read-out: GSK3-B TR-FRET BIOCHEMICAL (TR-FRET), GMean, IC50, 1 nM GSK3b, 2 μM ATP, 30 minute preincubation, geometric mean
[4] = read-out: GSK3-A TR-FRET BIOCHEMICAL (TR-FRET), GMean, IC50, 1 nM GSK3α, 4 μM ATP, 30 minute preincubation, geometric mean
[5] = read-out: GSK3-B TR-FRET BIOCHEMICAL (TR-FRET), IC50, 1 nM GSK3b, 2 μM ATP, 30 minute preincubation
[6] = read-out: GSK3-A TR-FRET BIOCHEMICAL (TR-FRET), IC50, 1 nM GSK3α, 4 μM ATP, 30 minute preincubation
[7] = read-out: GSK3-B TR-FRET BIOCHEMICAL (TR-FRET), IC50, 1 nM GSK3b, 2 μM ATP, 30 minute preincubation (Table 16)
[8] = read-out: GSK3-A TR-FRET BIOCHEMICAL (TR-FRET), IC50, 1 nM GSK3α, 4 μM ATP, 30 minute preincubation (Table 16)
[9] = read-out: GSK3-B TR-FRET BIOCHEMICAL (TR-FRET);, 1 nM GSK3b, 2 μM ATP, 30 minute preincubation, Table 16
[10] = read-out: GSK3-A TR-FRET BIOCHEMICAL (TR-FRET);, 1 nM GSK3α, 4 μM ATP, 30 minute preincubation, Table 16
[11] = read-out: GSK3-B (TR-FRET 1 mM ATP), GMean, IC50, 1 mM ATP, geometric mean
[12] = read-out: GSK3-A (TR-FRET 1 mM ATP), GMean, IC50, 1 mM ATP, geometric mean

Compound: CCC1(c2cccc(C(F)(F)F)c2)C2=C(CC(C)(C)CC2=O)Nc2n[nH]c(C(F)(F)F)c21 (centres unmarked)
- IC50 [1, 3]: 1000 to 5000 nM
- IC50 [2, 4]: 100 to 1000 nM

Compound: CC[C@@]1(c2cccc(-c3cnn(C)c3C)c2)C2=C(CC(C)(C)NC2=O)Nc2n[nH]c(C)c21
- IC50 [1, 5]: < 100 nM
- IC50 [2, 6]: < 100 nM

Compound: CC1(C)CC(=O)C2=C(C1)Nc1n[nH]c(CC(F)(F)F)c1[C@]21CCc2c(F)cccc21
- IC50 [1, 3]: 100 to 1000 nM
- IC50 [2, 4]: 100 to 1000 nM

Compound: CCC1(c2cccc(N(C)C(=O)C3CCN(C)CC3)c2)C2=C(CC(C)(C)CC2=O)Nc2n[nH]cc21 (centres unmarked)
- IC50 [1, 7]: 1000 to 5000 nM
- IC50 [2, 8]: 100 to 1000 nM

Compound: CC[C@]1(c2cccc(-c3ccnc(C(F)F)c3)c2)C2=C(CC(C)(C)NC2=O)Nc2n[nH]cc21
- IC50 [1, 7]: 100 to 1000 nM
- IC50 [2, 8]: < 100 nM

Compound: CC[C@@]1(c2cccc(N(C)c3cc(C)ccn3)c2)C2=C(CC(C)(C)CC2=O)Nc2n[nH]cc21
- IC50 [1, 9]: > 5000 nM
- IC50 [2, 10]: > 5000 nM

Compound: CCC1(c2cccc(C(F)(F)F)c2)C2=C(CCN(c3cscn3)C2=O)Nc2n[nH]cc21 (centres unmarked)
- IC50 [1, 7]: 100 to 1000 nM
- IC50 [2, 8]: < 100 nM

Compound: CCC1(c2cccc(-c3ccnc(OC)c3)c2)C2=C(CC(C)(C)CC2=O)Nc2n[nH]c(C)c21 (centres unmarked) [Compound 913053]
- IC50 [1, 7]: 100 to 1000 nM
- IC50 [2, 8]: < 100 nM

Compound: CC[C@]1(c2cccc(-c3ccnc(C(F)(F)F)c3)c2)C2=C(CC(C)(C)CC2=O)Nc2n[nH]cc21
- IC50 [1, 9]: > 5000 nM
- IC50 [2, 10]: > 5000 nM

Compound: CC[C@@]1(c2cccc(C(F)(F)F)c2)C2=C(C[C@@H](c3ccccc3)NC2=O)Nc2n[nH]cc21
- IC50 [1, 5]: 100 to 1000 nM
- IC50 [2, 6]: < 100 nM

Compound: CC[C@]1(c2cccc(-c3ccnc(O)c3)c2)C2=C(CC(C)(C)CC2=O)Nc2n[nH]cc21
- IC50 [1, 9]: > 5000 nM
- IC50 [2, 10]: > 5000 nM

Compound: CC[C@]1(c2cccc(S(C)(=O)=O)c2)C2=C(CC(C)(C)NC2=O)Nc2n[nH]c(C)c21
- IC50 [1, 11]: < 100 nM
- IC50 [1, 3]: < 100 nM
- IC50 [2, 12]: < 100 nM
- IC50 [2, 4]: < 100 nM

Compound: CC[C@@]1(c2cccc(C(F)(F)C(F)(F)F)c2)C2=C(CC(C)(C)CC2=O)Nc2n[nH]cc21
- IC50 [1, 11]: 100 to 1000 nM
- IC50 [1, 9]: < 100 nM
- IC50 [2, 12]: 100 to 1000 nM
- IC50 [2, 10]: < 100 nM

Compound: CC[C@@]1(c2cccc(N3CCOc4ccccc43)c2)C2=C(CC(C)(C)CC2=O)Nc2n[nH]cc21
- IC50 [1, 7]: > 5000 nM
- IC50 [2, 8]: > 5000 nM

Compound: CCc1cccc(N(C)c2cccc([C@@]3(CC)C4=C(CC(C)(C)CC4=O)Nc4n[nH]cc43)c2)n1
- IC50 [1, 9]: 100 to 1000 nM
- IC50 [2, 10]: < 100 nM

Compound: CC[C@]1(c2cccc(-c3ccnc(C)c3)c2)C2=C(Nc3n[nH]cc31)[C@H]1CC[C@@H](C2)C1
- IC50 [1, 9]: > 5000 nM
- IC50 [2, 10]: 1000 to 5000 nM

Compound: CCC1(c2cccc(C(F)(F)F)c2)C2=C(Nc3n[nH]cc31)C(C)CNC2=O (centres unmarked)
- IC50 [1, 5]: 100 to 1000 nM
- IC50 [2, 6]: < 100 nM

Compound: CC[C@]1(c2cccc(-c3ccnc4cccnc34)c2)C2=C(CC(C)(C)NC2=O)Nc2n[nH]cc21
- IC50 [1, 11]: > 5000 nM
- IC50 [1, 7]: < 100 nM
- IC50 [2, 12]: 100 to 1000 nM
- IC50 [2, 8]: < 100 nM

Compound: CC[C@@]1(c2cccc(C(F)(F)F)c2)C2=C(CCN(Cc3ccccc3)C2=O)Nc2n[nH]cc21
- IC50 [1, 5]: 1000 to 5000 nM
- IC50 [2, 6]: 100 to 1000 nM

Compound: CC(C)(C)Cc1[nH]nc2c1C1(CCc3ccc(F)cc31)C1=C(CC(C)(C)CC1=O)N2 (centres unmarked)
- IC50 [1, 3]: < 100 nM
- IC50 [2, 4]: 100 to 1000 nM

Compound: CC[C@]1(c2cccc(N3C[C@@H](C)[C@H](C)C3)c2)C2=C(CC(C)(C)CC2=O)Nc2n[nH]cc21
- IC50 [1, 7]: > 5000 nM
- IC50 [2, 8]: 1000 to 5000 nM

Compound: CC1(C)CC(=O)C2=C(C1)Nc1n[nH]c(C(F)(F)F)c1C21CCCc2ccccc21 (centres unmarked)
- IC50 [1, 3]: < 100 nM
- IC50 [2, 4]: < 100 nM

Compound: CC[C@@]1(c2cccc(C(F)(F)F)c2)C2=C(CCN(c3ccc(OC)cc3)C2=O)Nc2n[nH]c(C)c21
- IC50 [1, 3]: 100 to 1000 nM
- IC50 [2, 4]: < 100 nM

Compound: CC[C@@]1(c2cccc(N3CCCCC3)c2)C2=C(CC(C)(C)CC2=O)Nc2n[nH]c(C)c21 (single isomer, unassigned)
- IC50 [1, 11]: 100 to 1000 nM
- IC50 [1, 7]: < 100 nM
- IC50 [2, 12]: 100 to 1000 nM
- IC50 [2, 8]: < 100 nM

Compound: CCC1(c2cccc(S(=O)(=O)CC3CC3)c2)C2=C(CC(C)(C)CC2=O)Nc2n[nH]cc21 (centres unmarked) [Compound 917150]
- IC50 [1, 7]: < 100 nM
- IC50 [2, 8]: < 100 nM

Compound: CC[C@]1(c2cccc(-c3ccnc(N4CCOCC4)c3)c2)C2=C(CC(C)(C)NC2=O)Nc2n[nH]cc21
- IC50 [1, 3]: 1000 to 5000 nM
- IC50 [2, 4]: 100 to 1000 nM

Compound: CC[C@]1(c2cccc(C)c2)C2=C(CC3(CCCC3)CC2=O)Nc2n[nH]cc21
- IC50 [1, 3]: 100 to 1000 nM
- IC50 [2, 4]: < 100 nM

Compound: CC[C@]1(c2cccc(-c3ccnn3C)c2)C2=C(CC(C)(C)CC2=O)Nc2n[nH]c(C)c21
- IC50 [1, 11]: > 5000 nM
- IC50 [1, 7]: > 5000 nM
- IC50 [2, 12]: > 5000 nM
- IC50 [2, 8]: 1000 to 5000 nM

Compound: CC[C@@]1(c2cccc(N(C)c3nccc(OC)n3)c2)C2=C(CC(C)(C)CC2=O)Nc2n[nH]cc21
- IC50 [1, 11]: 1000 to 5000 nM
- IC50 [1, 9]: < 100 nM
- IC50 [2, 12]: 100 to 1000 nM
- IC50 [2, 10]: < 100 nM

Compound: CC[C@]1(c2cccc(-c3c(F)cncc3OC)c2)C2=C(CC(C)(C)CC2=O)Nc2n[nH]cc21
- IC50 [1, 9]: 100 to 1000 nM
- IC50 [2, 10]: < 100 nM

Compound: CC[C@]1(c2cccc(CN(C)c3ccc(F)nc3)c2)C2=C(CC(C)(C)CC2=O)Nc2n[nH]cc21
- IC50 [1, 9]: > 5000 nM
- IC50 [2, 10]: > 5000 nM

Compound: CC[C@@]1(c2cccc(N3CCCC[C@H]3C)c2)C2=C(CC(C)(C)CC2=O)Nc2n[nH]cc21
- IC50 [1, 7]: 100 to 1000 nM
- IC50 [2, 8]: < 100 nM

Compound: CC[C@]1(c2cccc(Oc3ncccn3)c2)C2=C(CC(C)(C)NC2=O)Nc2n[nH]c(F)c21
- IC50 [1, 11]: > 5000 nM
- IC50 [1, 7]: 100 to 1000 nM
- IC50 [2, 12]: 100 to 1000 nM
- IC50 [2, 8]: < 100 nM

Compound: CCC1(c2cccc(N(C)c3ncccn3)c2)C2=C(CC(C)(C)NC2=O)Nc2n[nH]c(Cl)c21 (centres unmarked)
- IC50 [1, 7]: < 100 nM
- IC50 [2, 8]: < 100 nM

Compound: CCC1(c2cccc(N3CCCC[C@H]3C)c2)C2=C(CC(C)(C)CC2=O)Nc2n[nH]cc21 (some centres unmarked)
- IC50 [1, 7]: 100 to 1000 nM
- IC50 [2, 8]: < 100 nM

Compound: CC1(C)CC(=O)C2=C(C1)Nc1n[nH]c(CCC(F)(F)F)c1C21CCc2c(F)cccc21 (centres unmarked) [Compound 874323]
- IC50 [1, 3]: 100 to 1000 nM
- IC50 [2, 4]: 100 to 1000 nM

Compound: CC[C@]1(c2cccc(-c3c([N+](=O)[O-])c(C)nn3C)c2)C2=C(CC(C)(C)NC2=O)Nc2n[nH]cc21
- IC50 [1, 7]: < 100 nM
- IC50 [2, 8]: < 100 nM

Compound: CC[C@@]1(c2cccc(Oc3cncnc3)c2)C2=C(CC(C)(C)CC2=O)Nc2n[nH]cc21
- IC50 [1, 9]: < 100 nM
- IC50 [2, 10]: < 100 nM

Compound: CCC1(c2cccc(N(C)C(=O)C3CCOCC3)c2)C2=C(CC(C)(C)CC2=O)Nc2n[nH]cc21 (centres unmarked)
- IC50 [1, 7]: 100 to 1000 nM
- IC50 [2, 8]: < 100 nM

Compound: CC[C@@]1(c2cccc(Oc3ncccn3)c2)C2=C(CC(C)(C)NC2=O)Nc2n[nH]c(F)c21
- IC50 [1, 7]: > 5000 nM
- IC50 [2, 8]: 1000 to 5000 nM

Compound: CC[C@@]1(c2cccc(-c3ccnc(OC)c3)c2)C2=C(CC(C)(C)CC2=O)Nc2n[nH]cc21
- IC50 [1, 11]: > 5000 nM
- IC50 [1, 7]: 100 to 1000 nM
- IC50 [2, 12]: 100 to 1000 nM
- IC50 [2, 8]: < 100 nM

Compound: CC[C@]1(c2cccc(-c3c(C)nn(C)c3C)c2)C2=C(CC(C)(C)NC2=O)Nc2n[nH]c(C(F)(F)F)c21
- IC50 [1, 3]: 1000 to 5000 nM
- IC50 [2, 4]: 100 to 1000 nM

Compound: CC(C)(C)Cc1[nH]nc2c1[C@@]1(CCCc3ccccc31)C1=C(CC(C)(C)CC1=O)N2
- IC50 [1, 3]: < 100 nM
- IC50 [2, 4]: 100 to 1000 nM

Compound: CC[C@@]1(c2cccc(-c3ccnc(C)c3)c2)C2=C(Nc3n[nH]cc31)[C@@H]1CC[C@@H](C1)C2=O
- IC50 [1, 9]: 100 to 1000 nM
- IC50 [2, 10]: < 100 nM

Compound: CC[C@@]1(c2cccc([C@@H]3CCOC3)c2)C2=C(CC(C)(C)CC2=O)Nc2n[nH]cc21
- IC50 [1, 7]: < 100 nM
- IC50 [2, 8]: < 100 nM

Compound: CC[C@@]1(c2cccc(N(C)c3cccc(OC)n3)c2)C2=C(CC(C)(C)CC2=O)Nc2n[nH]cc21
- IC50 [1, 7]: > 5000 nM
- IC50 [2, 8]: > 5000 nM

Compound: CCC1(c2cccc(N(C)c3cccc(C)n3)c2)C2=C(CC(C)(C)CC2=O)Nc2n[nH]cc21 (centres unmarked)
- IC50 [1, 7]: 100 to 1000 nM
- IC50 [2, 8]: < 100 nM
